These are literature values, as cited in US20050255458A1, “Drug discovery assays based on the biology of chronic disease” (priority 2002, published 2005).

The chains behind the UniProt entries cited, without tags or fusion partners. Where a name states a change or a piece, a line headed by the entry shows the natural chain unless it says otherwise.
UniProt P10275: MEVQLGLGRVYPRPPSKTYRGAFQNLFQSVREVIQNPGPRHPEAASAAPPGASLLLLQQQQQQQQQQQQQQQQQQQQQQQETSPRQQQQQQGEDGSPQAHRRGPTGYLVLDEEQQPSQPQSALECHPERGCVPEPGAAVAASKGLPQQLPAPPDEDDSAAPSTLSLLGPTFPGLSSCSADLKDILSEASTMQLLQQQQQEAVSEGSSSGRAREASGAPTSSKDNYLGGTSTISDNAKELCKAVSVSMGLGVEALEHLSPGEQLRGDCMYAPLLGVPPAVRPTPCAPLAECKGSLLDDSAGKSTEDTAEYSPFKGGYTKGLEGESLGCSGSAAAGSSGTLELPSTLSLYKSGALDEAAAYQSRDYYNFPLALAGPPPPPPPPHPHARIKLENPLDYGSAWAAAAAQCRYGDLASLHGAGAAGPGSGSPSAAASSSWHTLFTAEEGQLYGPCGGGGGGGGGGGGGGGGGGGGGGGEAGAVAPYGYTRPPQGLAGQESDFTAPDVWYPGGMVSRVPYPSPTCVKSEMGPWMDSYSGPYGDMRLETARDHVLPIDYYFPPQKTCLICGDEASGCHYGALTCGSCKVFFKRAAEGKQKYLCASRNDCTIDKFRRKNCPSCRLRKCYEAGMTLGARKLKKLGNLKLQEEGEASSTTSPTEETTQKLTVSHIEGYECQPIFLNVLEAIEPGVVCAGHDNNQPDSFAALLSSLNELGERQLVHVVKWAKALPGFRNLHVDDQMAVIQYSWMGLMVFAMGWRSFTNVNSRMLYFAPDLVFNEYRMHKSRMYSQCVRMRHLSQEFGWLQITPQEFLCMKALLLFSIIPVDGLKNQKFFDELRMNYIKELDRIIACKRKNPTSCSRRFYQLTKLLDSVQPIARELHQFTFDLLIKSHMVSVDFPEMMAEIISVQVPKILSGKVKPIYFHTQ

The target in the series is AR (Homo sapiens, UniProt P10275). The note with it: cited from earlier work.

By Kd is commonly meant the free concentration of one partner at which half of the binding sites on the other are occupied at equilibrium, for simple one-to-one binding. Take “[^3H]methyltrienolone [[3H]methyltrienolone (R1881)]”: the Kd was 0.9 ± 0.03 nM.
